Protein sequences, listed by entry. Tags and fused reporters are not part of them. Residues count along the entry.
UniProt P06276, 29-602: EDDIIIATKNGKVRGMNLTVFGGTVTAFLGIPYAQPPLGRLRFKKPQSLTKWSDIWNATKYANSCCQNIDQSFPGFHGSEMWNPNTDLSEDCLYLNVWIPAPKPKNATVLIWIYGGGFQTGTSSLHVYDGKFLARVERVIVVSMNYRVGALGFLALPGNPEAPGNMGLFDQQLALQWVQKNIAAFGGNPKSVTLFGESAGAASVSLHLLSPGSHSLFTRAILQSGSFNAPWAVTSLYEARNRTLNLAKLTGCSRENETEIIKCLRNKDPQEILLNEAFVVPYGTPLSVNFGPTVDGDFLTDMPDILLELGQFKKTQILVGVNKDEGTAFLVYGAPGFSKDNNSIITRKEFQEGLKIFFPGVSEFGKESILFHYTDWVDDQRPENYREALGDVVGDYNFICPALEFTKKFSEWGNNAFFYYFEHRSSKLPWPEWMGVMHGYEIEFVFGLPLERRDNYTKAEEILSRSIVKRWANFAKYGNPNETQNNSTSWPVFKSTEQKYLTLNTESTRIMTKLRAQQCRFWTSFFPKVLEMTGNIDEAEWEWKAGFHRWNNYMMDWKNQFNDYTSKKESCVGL

According to paper PMC12467246, “Characterization of the Anticholinesterase and Antioxidant Properties of Phytochemicals from Moringa oleifera as a Potential Treatment for Alzheimer’s Disease” (Biomedicines, 2025):

Biological target: T1, human butyrylcholinesterase (hBuChE) (Homo sapiens, UniProt P06276)
T1 construct: purchased Sigma B4186
Type: biochemical
Conditions: mean ± SEM, n = 3, actual or estimated IC50, 20 min pre-incubation; read-out: Enzyme IC50 hBuChE

**Q.** For CCN(C)C(=O)Oc1cccc([C@H](C)N(C)C)c1 [Rivastigmine, reference compound], which IC50 is on record?
**A.** 3.6 ± 0.3 µM
